Drawing on ChEMBL document CHEMBL1128004, “Ketones related to the benzoate 5-HT4 receptor antagonist RS-23597 are high affinity partial agonists” (Bioorg Med Chem Lett, 1994), this text covers Intrinsic activity for one molecule.

Protein sequences, listed by entry. Tags and fused reporters are not part of them. Lines headed by an entry give the natural chain unless they say otherwise; changes in a name come on top.
UniProt Q13639: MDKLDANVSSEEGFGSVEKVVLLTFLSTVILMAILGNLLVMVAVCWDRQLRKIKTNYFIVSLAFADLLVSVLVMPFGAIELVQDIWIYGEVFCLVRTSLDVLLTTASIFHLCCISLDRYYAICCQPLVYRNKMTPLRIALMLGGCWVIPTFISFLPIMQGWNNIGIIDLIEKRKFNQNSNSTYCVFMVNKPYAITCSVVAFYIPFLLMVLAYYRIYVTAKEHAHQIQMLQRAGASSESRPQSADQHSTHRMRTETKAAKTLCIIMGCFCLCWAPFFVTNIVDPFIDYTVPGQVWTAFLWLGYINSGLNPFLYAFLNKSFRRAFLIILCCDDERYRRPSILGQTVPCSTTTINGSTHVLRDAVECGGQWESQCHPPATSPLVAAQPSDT

For the test, the target named is 5-hydroxytryptamine receptor 4 (Homo sapiens) (UniProt Q13639). Description: Intrinsic activity relative to the 5-HT was determined. It is filed as functional. Conditions: Rattus norvegicus.

Take `CCCCN1CCC(CCC(=O)c2cc(Cl)c(N)cc2OC)CC1`: the Intrinsic activity stood at 0.6.
